Laboratory results as given in patent US6069244A, “Phthalocyanine compound, method for production thereof, and use thereof” (Nippon Shokubai Co., Ltd., priority 1998, dated 2000).

What was measured:
Type in all cases: physicochemical
[1] = maximum absorption wavelength and extinction coefficient by spectrophotometer in ethyl cellosolve
[2] = transmittance to visible ray of chloroform solution diluted to minimum transmittance of 5 to 6% at 750 to 1,100 nm; conditions: 1 cm quartz cell, minimum transmittance at 750 to 1,100 nm 5 to 6%, JIS R3106
[3] = solubility in toluene and methylethyl ketone, visual observation; conditions: room temperature (25° C.)
Description: The data of solubility shown in Table 1 represent the results of the rating which was conducted on the four-point scale, wherein .circleincircle. stands for a solubility of not less than 5% by weight, .smallcircle. for a solubility of not less than 1% by weight and less than 5% by weight, Δ for a solubility of not less than 0.1% by weight and less than 1% by weight, and X for a solubility of less than 0.1% by weight.

## penta(4-methoxyphenylamino)deca(4-methylphenyl-thio) copper phthalocyanine [Control 3]
[1]
  Maximum absorption wavelength: 849 nm
[2]
  Transmittance to visible ray: 61%
[3]; methylethyl ketone
  Solubility, MEK: .smallcircle. (a solubility of not less than 1% by weight and less than 5% by weight)
[3]; toluene
  Solubility, Toluene: .circleincircle. (a solubility of not less than 5% by weight)
